Test results published in PubChem BioAssay AID1016 (Sanford-Burnham Center for Chemical Genomics, 2008).
The list shows a part of the results, in another mix than the full data. Some results for these compounds are left out of this collection, so the calls shown say nothing about other tests. Calls of active or inactive are those of the source.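 Rule for the calls: active = activation factor of 2 or more at 20 µM, a signal rise over negative controls twice the positive control's; inactive = the rest.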

What follows are compounds tested on alkaline phosphatase, intestinal [Bos taurus] (assay: IAP enzyme activity enhancers – biochemical, bovine IAP, CDP-star luminescence, primary screen (AID 1016)). Details: purified bovine IAP, 30 min, at 20 µM, stronger effect = higher value, fold of DMSO-control signal, blank-subtracted.
For `CN(C)C1CCCC1OC(=O)C(O)(c1ccccc1)c1ccccc1` (centres undefined), the activation factor was inactive: 1. `Cc1ccccc1C(=O)NCC1(N2CCCCC2)CCCCC1` was tested, and the activation factor was inactive: 1.1. In the case of `C=CCN1CCN(CCOC(=O)C(O)(c2ccccc2)c2ccccc2)CC1`, the activation factor is reported as inactive: 1. With `CCN1CCCC(OC(=O)C2(O)c3ccccc3C=Cc3ccccc32)C1` (centres undefined) the activation factor was inactive: 0.7. `O=C(NCC1(N2CCCCC2)CCCCC1)c1cc([N+](=O)[O-])ccc1Cl` was tested, and the activation factor was inactive: 0.7. In the case of `CC(C)N1C(=O)CC2(CCN(CCOC(=O)C(O)(c3ccccc3)c3ccccc3)CC2)C1=O`, the activation factor is reported as inactive: 1. In the case of `O=C(OC1CN2CCC1CC2)C(CO)(c1ccccc1)c1ccccc1` (centres undefined), the activation factor is reported as inactive: 1. In the case of `CN(C)c1cccc(C(=O)NCC2(N(C)C)CCCCC2)c1`, the activation factor is reported as inactive: 1. `COc1cccc(C(=O)NCC2(N3CCCCC3)CCCCC2)c1` was tested, and the activation factor was inactive: 1.
